Measured values: ChEMBL document CHEMBL1130156, “Evolution of the Dmt-Tic pharmacophore: N-terminal methylated derivatives with extraordinary delta opioid antagonist activity” (J Med Chem, 1997)
pIC50, pKi: −log10 of the molar value.

The chains behind the UniProt entries cited, without tags or fusion partners.
UniProt P35372, whole entry: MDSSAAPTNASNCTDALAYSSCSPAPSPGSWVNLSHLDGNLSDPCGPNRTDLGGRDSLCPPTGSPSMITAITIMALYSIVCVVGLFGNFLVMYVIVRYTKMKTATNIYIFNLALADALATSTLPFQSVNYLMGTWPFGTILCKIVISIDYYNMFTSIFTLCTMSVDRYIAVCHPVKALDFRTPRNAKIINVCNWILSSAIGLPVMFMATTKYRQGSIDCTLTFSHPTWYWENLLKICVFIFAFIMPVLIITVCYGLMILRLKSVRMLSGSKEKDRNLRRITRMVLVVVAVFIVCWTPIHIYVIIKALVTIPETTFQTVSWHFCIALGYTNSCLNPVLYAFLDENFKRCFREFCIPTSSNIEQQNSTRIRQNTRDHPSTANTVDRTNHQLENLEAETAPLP
UniProt P33533, whole entry: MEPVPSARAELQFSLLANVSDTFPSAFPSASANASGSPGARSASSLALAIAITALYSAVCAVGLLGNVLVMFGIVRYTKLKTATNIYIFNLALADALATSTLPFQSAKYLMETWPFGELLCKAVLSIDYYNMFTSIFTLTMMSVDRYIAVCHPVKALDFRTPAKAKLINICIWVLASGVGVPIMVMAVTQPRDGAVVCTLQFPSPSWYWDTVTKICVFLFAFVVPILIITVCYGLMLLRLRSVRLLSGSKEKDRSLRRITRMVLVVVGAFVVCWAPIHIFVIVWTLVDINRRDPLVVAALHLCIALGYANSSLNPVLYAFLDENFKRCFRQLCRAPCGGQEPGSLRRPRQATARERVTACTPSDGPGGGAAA

Legend:
Mu-type opioid receptor = Mu-type opioid receptor (Homo sapiens, UniProt P35372); experiment: Agonist activity for Opioid receptor mu 1; format: functional
[1] = molecular target: Delta-type opioid receptor (Rattus norvegicus, UniProt P33533); experiment: Binding affinity for Opioid receptor delta 1 by displacement of [3H]- DPDPE
In short: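 Rat brain (Sprague–Dawley, minus cerebellum) synaptosomal membranes, preincubated to strip endogenous opioids. Equilibrium displacement of [3H]DPDPE (δ) or [3H]DAGO (μ); nonspecific binding defined with 2 μM unlabeled ligand. Peptides spanned 3–4 log units. Duplicates, ≥3 membrane preparations; Ki by Cheng–Prusoff; mean ± SEM, n = independent preparations.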

SMILES | pIC50 (Mu-type opioid receptor) | pKi [1]
C[C@@H](NC(=O)[C@@H](N)Cc1ccc(O)cc1)C(=O)N[C@@H](Cc1ccccc1)C(=O)NCC(=O)N[C@@H](Cc1ccc(O)cc1)C(=O)N1CCC[C@H]1C(=O)N[C@@H](CO)C(N)=O [DERMORPHIN] | 8.74 | 
Cc1cc(O)cc(C)c1CC(N)C(=O)N1Cc2ccccc2C[C@H]1C(=O)O (single isomer, unassigned) |  | 6.91
